Laboratory results reported in patent US12122848B2, “Compositions and methods for treating fibroids” (THE LUNDQUIST INSTITUTE FOR BIOMEDICAL INNOVATION AT …, priority 2020, dated 2024).

What was measured:
Type in all cases: cell-based, human
[1] = test system: LSMC (leiomyoma smooth muscle cells) spheroids; experiment: Cell proliferation in LSMC spheroids, CellTiter-Glo 3D Cell Viability Assay
Method: (§1) Isolated MSMC and LSMC were plated in 6-well (1×10^5 cells/well) or 96-well (5×10^3 cells/well) plates which were coated with 0.5% agarose gel and incubated 48 hours for spheroids formation.
(§2) The concentrations of inhibitors used was based on earlier studies and the cell proliferation was determined using the CellTiter-Glo 3D Cell Viability Assay (Promega, Madison, WI) according to the manufacturer's protocol. The assay was performed in six replicates per condition and repeated four times using cells isolated from four different patients.

[2] = test system: MSMC (myometrial smooth muscle cells) spheroids; experiment: Cell proliferation in MSMC spheroids, CellTiter-Glo 3D Cell Viability Assay
Method: as §1, §2

LSMC spheroids = experiment: Immunoblotting of ECM and inflammation proteins in LSMC spheroids after inhibitor treatment; settings: Example 3, 48 hours, different concentrations
Method: (§3) Total protein isolated from paired tissue samples and MSMC and LSMC spheroids following treatment conditions was subjected to immunoblotting. Briefly, samples were suspended in RIPA buffer containing 1 mM EDTA and EGTA (Boston BioProducts, Ashland, MA) supplemented with 1 mM PMSF and a complete protease inhibitor mixture (Roche Diagnostics, Indianapolis, IN), sonicated, and centrifuged at 4° C. for 10 min at 14,000 rpm. The concentration of protein was determined using the BCA™ Protein Assay Kit (Thermo Scientific Pierce, Rockford, IL). Equal aliquots (thirty micrograms) of total protein for each sample was denatured with SDS-PAGE sample buffer and separated by electrophoresis on a SDS polyacrylamide gel. After transferring the samples to a nitrocellulose membrane, the membrane was blocked with TBS-Tween+5% milk and probed with the following primary antibodies: IDO1 (Cell Signaling Technology, Danvers, MA), TDO2, COL3A1 (Proteintech Group, Inc, Chicago, Illinois) and COL1A1 (Fitzgerald Industries Intl, Acton, MA). The membranes were washed with TBS containing 0.1% Tween-20 wash buffer after each antibody incubation cycle. SuperSignal West Pico Chemiluminescent Substrate™ (Thermo Scientific Pierce) was used for detection, and photographic emulsion was used to identify the protein bands, which were subsequently quantified by densitometry. The membranes were also stripped and probed with glyceraldehyde 3-phosphate dehydrogenase (GAPDH) antibody (Santa Cruz Biotechnology, Santa Cruz, CA) serving as the loading control. The densities of the specific protein bands were determined using image J program (imagej.nih.gov/ij/), normalized to GAPDH or a band obtained from staining the membrane with Ponceau S. Results were expressed as means±SEM as a ratio relative to the control group designated as 1.
as §1

MSMC spheroids = experiment: Immunoblotting of COL1A1 and COL3A1 in MSMC spheroids after inhibitor treatment; settings: Example 3, 48 hours, different concentrations
Method: as §3, §1

[3] = Example 3, various concentrations, 48 hours, n=4

NS(=O)(=O)NCCNc1nonc1/C(=N/O)Nc1ccc(F)c(Br)c1 [Epacadostat]
no effect: spheroids cell proliferation [1, 3] | spheroids cell proliferation [2, 3]
did not have any effect: expression of COL1A1 (LSMC spheroids; listed as Epacodostat) | expression of COL3A1 (LSMC spheroids; listed as Epacodostat) | expression of COL1A1 (MSMC spheroids; listed as Epacodostat) | expression of COL3A1 (MSMC spheroids; listed as Epacodostat)
significantly suppressed: cell proliferation ([1]; Example 2) | cell proliferation ([2]; Example 2)
but not: expression of COL1A1 (LSMC spheroids) | expression of COL3A1 (LSMC spheroids) | expression of COL1A1 (MSMC spheroids) | expression of COL3A1 (MSMC spheroids)
